Drawing on BindingDB's records for PubMed 38653067 (Cairo University), this text covers Ki for one molecule.

In general, Ki refers to the dissociation constant of the complex between target and ligand, obtained from inhibition or displacement.

This experiment addresses Carbonic anhydrase 2 (Homo sapiens, UniProt P00918).

For `CN1C(=O)C(=C2C(=O)Nc3ccccc32)S/C1=N/c1ccc(S(N)(=O)=O)cc1`, the affinity corresponds to a Ki of 41 nM.
